Test results from patent US8058475B2, “Substituted cyclohexylmethyl compounds” (Gruenenthal GmbH, priority 2005, dated 2011).

The chains behind the UniProt entries cited, without tags or fusion partners.
UniProt P35372, whole entry: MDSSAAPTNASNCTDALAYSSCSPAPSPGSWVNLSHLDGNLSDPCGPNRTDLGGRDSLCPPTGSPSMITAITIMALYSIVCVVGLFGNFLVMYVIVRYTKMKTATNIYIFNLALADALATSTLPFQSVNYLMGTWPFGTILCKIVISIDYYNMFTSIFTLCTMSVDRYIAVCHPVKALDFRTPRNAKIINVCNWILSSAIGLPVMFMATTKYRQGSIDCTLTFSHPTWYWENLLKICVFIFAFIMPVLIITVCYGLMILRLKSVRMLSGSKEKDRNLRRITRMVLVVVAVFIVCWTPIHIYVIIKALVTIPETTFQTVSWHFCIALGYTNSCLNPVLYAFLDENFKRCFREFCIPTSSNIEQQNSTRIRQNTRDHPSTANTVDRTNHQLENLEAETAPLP

Molecular target: human μ-opiate receptor (Homo sapiens, UniProt P35372)
Settings: acylated amines (Table 20)

In the case of `CN(C)C(c1cccc(F)c1)C1CCC(CNC(=O)c2cccc(C(F)(F)F)c2)CC1` (centres unmarked), the “μ-Opioid receptor, % inhibition [1 μM]” value (1 μM) is reported as 85% and the Ki (read-out: μ-Opioid receptor, Ki) is reported as 35 nM.
